{"source": "paper PMC5862788", "about": "(Antiviral therapy, 2018)", "test_system": "HCV", "conditions": "in vivo", "note": "Values joined by “and” are separate entries in the source; they are usually repeats but may differ in a detail not shown here. Identical values can stand only once."}
{"smiles": "CS(=O)(=O)Nc1ccc2c(c1)S(=O)(=O)N=C(C1=C(O)[C@@H]3[C@H]4CC[C@H](C4)[C@@H]3N(Cc3ccc(F)cc3)C1=O)N2", "note": "[setrobuvir]", "values": [{"measurement": "δ (loss rate of infected cells)", "value": "0.093 d^−1 and 0.0933 (52) d^−1"}]}
